Only a part is listed here, and it is no random draw. The source made the active and inactive calls.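 Rule for the calls: active = inhibition above the screen-wide mean plus 3 SD, limit set per campaign (cut at about 26% in these data); inactive = the rest.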
Target: Acyl-protein thioesterase 2 (Homo sapiens) (UniProt O95372)
Experiment: LYPLA2 inhibitors, primary screen, counter-screen for PME1 inhibitor project, biochemical, fluorescence polarization, FP-Rh probe ABPP (AID 2177);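 note: 0% = LYPLA2 with DMSO and 100% = wells lacking LYPLA2 enzyme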
Conditions: recombinant LYPLA2, FP-Rh probe fluorescence polarization; at 5.9 µM; stronger effect = higher value

Sequences of proteins named here, by UniProt entry; tags and fusion partners are left off.
UniProt O95372, whole entry: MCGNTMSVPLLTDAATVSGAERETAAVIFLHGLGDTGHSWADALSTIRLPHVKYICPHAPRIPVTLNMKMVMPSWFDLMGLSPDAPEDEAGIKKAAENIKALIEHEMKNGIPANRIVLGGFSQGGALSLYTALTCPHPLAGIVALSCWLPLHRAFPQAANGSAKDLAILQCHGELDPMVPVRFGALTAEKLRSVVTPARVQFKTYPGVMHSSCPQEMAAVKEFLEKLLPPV

| Compound | inhibition |
| --- | --- |
| CN(C)C1(CNC(=O)c2cccc(C#N)c2)CCCCC1 | inactive: 1.27% |
| c1ccc(CN2CCC(Nc3ccccc3)CC2)cc1 | inactive: 0.02% |
| CCCN1CCC(Nc2cc(OC)cc(OC)c2)CC1 | inactive: 1.38% |
| N#Cc1ccc(C(=O)NCC2(N3CCCCC3)CCCCC2)cc1 | inactive: -1.45% |
| CC(C)(C)OC(=O)N1CCC(N(C(=O)c2ccccc2)c2ccc(Cl)cc2)CC1 | inactive: 0.73% |
| O=C(OC1CN2CCC1CC2)C1c2ccccc2C=Cc2ccccc21 (stereo unspecified) | inactive: 2.27% |
| CCc1cc(C(=O)NCC2(N3CCCCC3)CCCCC2)sc1C | inactive: 5.74% |
| CCOC(=O)N1CCC(Nc2ccc(C)cc2)CC1 | inactive: 2.89% |
| N/C(=N\O)c1c(N)no[n+]1[O-] | inactive: -12% |
| COc1ccc(C(=O)NCC2(N3CCOCC3)CCCCC2)cc1OC | inactive: 3.34% |
| O=C(NCC1(N2CCOCC2)CCCCC1)c1cc(Br)ccc1Cl | inactive: 3.89% |
| CN1CCC(Nc2ccc(Cl)cc2)CC1 | inactive: -3.53% |
| CCCOc1ccc(C)cc1CN(CCCl)CCCl | inactive: -1.86% |
| COc1cc(OC)cc(C(=O)NCC2(N3CCOCC3)CCCCC2)c1 | inactive: 5.1% |
| COc1cccc(C(=O)N(c2cc(C)cc(C)c2)C2CCN(C(=O)OC(C)(C)C)CC2)c1 | inactive: -3.56% |
| CCC(CO)(C(=O)OC1CN2CCC1CC2)c1ccccc1 (stereo unspecified) | inactive: 3.59% |
| CC(C)(C)OC(=O)N1CCC(Nc2ccccc2)CC1 | inactive: 3.72% |
| O=C(O)C1(Nc2ccccc2)CCN(Cc2ccccc2)CC1 | inactive: 2.17% |
| CCCOc1ccc(C(=O)NCC2(N(C)C)CCCCC2)cc1 | inactive: -6.95% |
| CCOc1ncccc1C(=O)NCC1(N2CCOCC2)CCCCC1 | inactive: 3.48% |
| CN1CCC(Nc2ccc(F)c(Cl)c2)CC1 | inactive: 0.07% |

| Compound | inhibition |
| --- | --- |
| O=C(NCC1(N2CCCCC2)CCCCC1)c1ccco1 | inactive: -4.15% |
| CN(C)c1ccc(C(=O)NCC2(N3CCCCC3)CCCCC2)cc1 | inactive: 3.53% |
| CCN1CCC(Nc2cccc(F)c2)CC1 | inactive: 5.19% |
| Cc1ccc(C(=O)NCC2(N3CCCCC3)CCCCC2)o1 | inactive: 5.69% |
| Fc1ccccc1NC1CCN(Cc2ccccc2)CC1 | inactive: -0.36% |
| COc1cc(OC)cc(C(=O)NCC2(N3CCCCC3)CCCCC2)c1 | inactive: 6.94% |
| CCOC(=O)N1CCC(Nc2cccc(C)c2)CC1 | inactive: -0.08% |
| Cc1ccc(OCC(C)C)c(CN(CCCl)CCCl)c1 | inactive: 3.83% |
| O=C(NCC1(N2CCCCC2)CCCCC1)c1ccc(F)cc1 | inactive: -0.06% |
| COc1ccc(NC2CCN(CCc3ccccc3)CC2)c(OC)c1 | inactive: 2.77% |
| CCOc1ccc(C)cc1CN(CCCl)CCCl | inactive: 2.09% |
| O=C(OC1CN2CCC1CC2)C1c2ccccc2Oc2ccccc21 (stereo unspecified) | inactive: 3.15% |
| N#CC1(Nc2ccccc2)CCN(Cc2ccccc2)CC1 | inactive: -4.9% |
| O=C(NCC1(N2CCCCC2)CCCCC1)c1ccc(Cl)s1 | inactive: 5.94% |
| COc1ccc(Cl)cc1C(=O)NCC1(N2CCOCC2)CCCCC1 | inactive: 6.26% |
| CCOC(=O)N1CCC(Nc2ccc(OC)cc2)CC1 | inactive: -1.5% |
| O=C(NCC1(N2CCCCC2)CCCCC1)c1ccc(Cl)nc1 | inactive: 5.42% |
| Cc1cc(C)cc(N(C(=O)c2ccccc2)C2CCN(C(=O)OC(C)(C)C)CC2)c1 | inactive: 7.01% |
| O=C(NCC1(N2CCOCC2)CCCCC1)c1cc2ccccc2o1 | inactive: 4% |
| CSc1ccccc1C(=O)NCC1(N2CCCCC2)CCCCC1 | inactive: -1.97% |
| COc1ccc(C(=O)NCC2(N3CCCCC3)CCCCC2)cc1 | inactive: 9.77% |

| Compound | inhibition |
| --- | --- |
| COc1ccc(C(=O)NCC2(N3CCCCC3)CCCCC2)c(OC)c1OC | inactive: -1.46% |
| CC(C)(C)OC(=O)N1CCC(N(C(=O)c2ccccc2)c2ccc(F)cc2)CC1 | inactive: 0.98% |
| O=C(NCC1(N2CCCCC2)CCCCC1)c1ccc(=O)[nH]c1 | inactive: 11.9% |
| O=C(NCC1(N2CCCCC2)CCCCC1)c1cccs1 | inactive: -0.65% |
| O=C(NCC1(N2CCCCC2)CCCCC1)c1cncc(Br)c1 | inactive: 6.21% |
| CN1CCC(Nc2cccc(F)c2)CC1 | inactive: 5.94% |
| COc1cc(OC)c(C(=O)NCC2(N(C)C)CCCCC2)cc1OC | inactive: -0.91% |
| CC(C)c1ccc(NC2CCN(C(=O)OC(C)(C)C)CC2)cc1 | inactive: 2.9% |
| COc1ccc(CN(CCCl)CCCl)cc1Cl | inactive: 3.58% |
| CN(C)c1cccc(C(=O)NCC2(N3CCCCC3)CCCCC2)c1 | inactive: -2.2% |
| COc1cc(C(=O)NCC2(N3CCCCC3)CCCCC2)ccc1OC(F)F | inactive: -2.37% |
| O=C(NCC1(N2CCOCC2)CCCCC1)c1cc(=O)[nH]c2ccccc12 | inactive: -5.35% |
| CN1CCN(CCOC(=O)C(O)(c2ccccc2)c2ccccc2)CC1 | inactive: 1.13% |
| COc1ccc(NC2CCN(C(=O)OC(C)(C)C)CC2)cc1 | inactive: 2.05% |
| O=C(NCC1(N2CCCCC2)CCCCC1)c1cccc(C(F)(F)F)c1 | inactive: 3.23% |
| CCN1CCC(Nc2ccc(Cl)cc2)CC1 | inactive: -1.24% |
| N#CC1(Nc2ccccc2)CCN(CCc2ccccc2)CC1 | inactive: 2.72% |
| O=C(NCC1(N2CCCCC2)CCCCC1)c1cccc([N+](=O)[O-])c1 | inactive: 1.62% |
| O=C(NCC1(N2CCCCC2)CCCCC1)c1ccc(OC(F)F)cc1 | inactive: -3.25% |
